Assay results: article PMC6982547 (Leukemia & lymphoma, 2019)
Like-named read-outs stand apart in the source and are kept apart here.

Conditions: human, in vivo

Compound: O=C(CCCCCCC(=O)Nc1ccccc1)NO [Vorinostat]
- Cl/F: 143 L/h
- Cl/F (200 mg): 331 L/h
